# Reference: patent publication US20120046329A1, “MODULATORS OF NOD1 AND NOD2 SIGNALING, METHODS OF IDENTIFYING MODULATORS OF NOD1 AND NOD2 SIGNALING, AND USES THEREOF” (Sanford-Burnham Medical Research Institute, priority 2010, published 2012)
# Columns and labels:
# [1] = target: T1, NOD1 (Homo sapiens, UniProt Q9Y239); assay: 1D 1H-NMR ligand binding to recombinant NOD1 protein; design: made in house; conditions: 50 μM compound, 5 μM protein
# T1 sequence (Q9Y239 1-953): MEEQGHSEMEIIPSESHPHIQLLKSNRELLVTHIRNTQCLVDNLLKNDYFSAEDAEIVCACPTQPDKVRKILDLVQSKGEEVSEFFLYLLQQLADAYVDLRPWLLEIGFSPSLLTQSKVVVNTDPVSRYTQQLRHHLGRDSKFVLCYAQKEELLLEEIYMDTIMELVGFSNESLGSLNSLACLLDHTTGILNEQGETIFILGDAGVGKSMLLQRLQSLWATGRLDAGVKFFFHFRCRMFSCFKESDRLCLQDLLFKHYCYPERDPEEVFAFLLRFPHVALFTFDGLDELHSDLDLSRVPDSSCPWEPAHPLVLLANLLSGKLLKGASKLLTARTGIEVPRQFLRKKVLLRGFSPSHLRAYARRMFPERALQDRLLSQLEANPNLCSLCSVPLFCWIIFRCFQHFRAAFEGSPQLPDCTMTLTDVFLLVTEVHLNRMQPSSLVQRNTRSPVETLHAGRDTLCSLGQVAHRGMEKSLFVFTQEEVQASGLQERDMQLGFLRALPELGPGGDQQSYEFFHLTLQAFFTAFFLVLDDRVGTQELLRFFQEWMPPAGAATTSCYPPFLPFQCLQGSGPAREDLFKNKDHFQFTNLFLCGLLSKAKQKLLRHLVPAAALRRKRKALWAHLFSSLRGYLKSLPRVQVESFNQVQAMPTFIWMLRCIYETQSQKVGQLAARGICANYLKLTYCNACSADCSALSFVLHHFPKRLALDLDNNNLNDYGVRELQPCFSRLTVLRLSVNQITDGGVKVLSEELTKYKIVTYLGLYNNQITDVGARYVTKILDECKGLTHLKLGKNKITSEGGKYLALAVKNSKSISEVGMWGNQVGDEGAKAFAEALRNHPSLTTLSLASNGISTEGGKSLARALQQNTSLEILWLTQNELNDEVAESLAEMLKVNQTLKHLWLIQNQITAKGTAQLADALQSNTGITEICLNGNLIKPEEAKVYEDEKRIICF
# [2] = target: T1, NOD1; assay: NF-κB luciferase in 697 pre-B leukemia cells, γ-tri-DAP; conditions: 697 cells, 10 μM
# [3] = target: T1, NOD1; assay: γ-tri-DAP-induced IL-8 secretion ELISA in MCF-7/NOD1 cells; conditions: MCF-7 cells, listed as probe
# [4] = target: T1, NOD1; assay: Subcellular fractionation of MCF-7 cells expressing tagged NOD1; conditions: MCF-7, 5 μM, 24 hr
# [5] = target: T1, NOD1; assay: Primary monocyte-derived dendritic cells activated with γ-tri-DAP; conditions: 15 μM
# [6] = target: T1, NOD1; assay: NF-κB SEAP reporter in PMA-differentiated THP.1 macrophages, γ-tri-DAP; format: cell-based; design: endogenous in cells; host or cells: HEK293T with integrated NF-κB-luciferase or ISRE-luciferase reporter; conditions: 5 μM, 24 h
# [7] = target: T1, NOD1; assay: ISRE-driven luciferase reporter in HEK293T, γ-tri-DAP; format: cell-based; design: endogenous in cells; host or cells: HEK293T with integrated NF-κB-luciferase or ISRE-luciferase reporter; conditions: 5 μM
# [8] = target: T1, NOD1; assay: Fluorescence polarization assay, FITC-ATP binding to recombinant NOD1; design: endogenous in cells; host or cells: HEK293T with integrated NF-κB-luciferase or ISRE-luciferase reporter; conditions: 10 nM FITC-ATP
structure (smiles),measurement,setting,value
Cc1ccc(S(=O)(=O)n2c(N)nc3ccccc32)cc1 [Compound 1],Binding to NOD1 protein by 1D 1H-NMR signal suppression,[1],direct interaction
same,Effect on NF-κB activity induced by γ-tri-DAP,[2],is inhibited
same,Inhibition of NOD1 (γ-tri-DAP) dependent IL-8 secretion (in words),[3],Dose dependent inhibition
same,Membrane localization of RIP2,[4],reduced
same,NOD1 protein in the membrane fraction,[4],induced enrichment
same,Cytotoxicity in dendritic cells,[5],without causing cytoxicity
same,"Expression of IL-1β, IL-6 and TNF-α elicited by γ-tri-DAP","[5]; dendritic cells, 4 hr, mRNA",inhibited
same,"Cell surface expression of CD83, CD86 and HLA-DR elicited by γ-tri-DAP","[5]; dendritic cells, 24 hr",reduced
same,Effect on NF-κB-inducible SEAP activity induced by γ-tri-DAP,[6],inhibition by compound 1 was highly reproducible
same,Effect on ISRE-driven reporter gene activity induced by γ-tri-DAP,[7],suppressed
same,Interference with ATP binding to recombinant NOD1 protein,[8],did not interfere
